{
  "sequences": {"note": "By UniProt entry, the sequences of proteins in these tests, tags left out.", "VCB (VHL-ElonginC-ElonginB) (Homo sapiens), P40337, UniProt P40337, whole entry, chain 1 of 3": "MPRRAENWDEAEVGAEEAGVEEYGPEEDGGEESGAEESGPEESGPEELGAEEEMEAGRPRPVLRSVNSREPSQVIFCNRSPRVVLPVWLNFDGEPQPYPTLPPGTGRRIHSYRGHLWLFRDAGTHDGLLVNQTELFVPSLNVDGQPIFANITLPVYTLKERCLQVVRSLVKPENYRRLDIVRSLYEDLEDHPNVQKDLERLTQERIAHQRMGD"},
  "source": "paper PMC6600871",
  "about": "(Nature chemical biology, 2019)",
  "biological_target": "VCB (VHL-ElonginC-ElonginB) (Homo sapiens), P40337",
  "details": "modification not given",
  "data": [
    {"binder": "LEMLAPYIPMDDDFQLRSF", "note": "[HIF-1α peptide (FAM-labelled, JC9), Q16665]", "values": [
      {"measurement": "Kd", "value": 1.5, "unit": "nM"}
    ]}
  ]
}
